For one test, the system named is CP-A. In words: Antiproliferative activity against human CP-A cells assessed as reduction in cell viability at 0.003 to 30 uM measured after 5 days by PrestoBlue reagent based fluorescence analysis. It is filed as functional. The following applies: dose 0.003-30 µM, time 5.0 day.
Another test relates to EPC-2. In words: Antiproliferative activity against human EPC-2 cells assessed as reduction in cell viability at 0.003 to 30 uM measured after 5 days by PrestoBlue reagent based fluorescence analysis. It is filed as functional. The following applies: dose 0.003-30 µM, time 5.0 day.

The values that follow come from ChEMBL document CHEMBL6134771, “Ligand-centred phenotype-driven development of potent kinase inhibitors against oesophageal cancer” (RSC Med Chem, 2025).

The structures appear in SMILES notation. Calls of active or inactive are those of the source. No cut-off for these calls is given here.

With `CNc1ncc2c(/C=C/C(=O)N3CCC(OC)CC3)nn(Cc3cccc(C(F)(F)F)c3)c2n1`, the outcome in the test with CP-A and in the test with EPC-2 was Active.
